Measurements published in publication PMC11522279.

Legend:
[1] = HRCECs, Ad-OGT / Ad-OGA, blot; conditions: glycan lost; control: control adenovirus
[2] = HRCECs, Ad-Flag-YAP, 25 mM glucose, blot; conditions: glycan lost; control: siCtrl
[3] = nuclear localisation of Flag-YAP-WT, HRCECs; conditions: glycan lost; control: siCtrl

| Protein | other: phosphorylation at S397 [1] | other: phosphorylation at S397 [2] | localisation_or_trafficking [3] |
| --- | --- | --- | --- |
| YAP (Yes-associated protein): OGA overexpression (protein) parent chain: MDPGQQPPPQPAPQGQGQPPSQPPQGQGPPSGPGQPAPAATQAAPQAPPAGHQIVHVRGDSETDLEALFNAVMNPKTANVPQTVPMRLRKLPDSFFKPPEPKSHSRQASTDAGTAGALTPQHVRAHSSPASLQLGAVSPGTLTPTGVVSGPAATPTAQHLRQSSFEIPDDVPLPAGWEMAKTSSGQRYFLNHIDQTTTWQDPRKAMLSQMNVTAPTSPPVQQNMMNSASGPLPDGWEQAMTQDGEIYYINHKNKTTSWLDPRLDPRFAMNQRISQSAPVKQPPPLAPQSPQGGVMGGSNSNQQQQMRLQQLQMEKERLRLKQQELLRQVRPQAMRNINPSTANSPKCQELALRSQLPTLEQDGGTQNPVSSPGMSQELRTMTTNSSDPFLNSGTYHSRDESTDSGLSMSSYSVPRTPDDFLNSVDEMDTGDTINQSTLPSQQNRFPDYLEAIPGTNVDLGTLEGDGMNIEGEELMPSLQEALSSDILNDMESVLAATKLDKESFLTWL | increases | – | – |
| YAP (Yes-associated protein): siOGT (protein) parent chain: MDPGQQPPPQPAPQGQGQPPSQPPQGQGPPSGPGQPAPAATQAAPQAPPAGHQIVHVRGDSETDLEALFNAVMNPKTANVPQTVPMRLRKLPDSFFKPPEPKSHSRQASTDAGTAGALTPQHVRAHSSPASLQLGAVSPGTLTPTGVVSGPAATPTAQHLRQSSFEIPDDVPLPAGWEMAKTSSGQRYFLNHIDQTTTWQDPRKAMLSQMNVTAPTSPPVQQNMMNSASGPLPDGWEQAMTQDGEIYYINHKNKTTSWLDPRLDPRFAMNQRISQSAPVKQPPPLAPQSPQGGVMGGSNSNQQQQMRLQQLQMEKERLRLKQQELLRQVRPQAMRNINPSTANSPKCQELALRSQLPTLEQDGGTQNPVSSPGMSQELRTMTTNSSDPFLNSGTYHSRDESTDSGLSMSSYSVPRTPDDFLNSVDEMDTGDTINQSTLPSQQNRFPDYLEAIPGTNVDLGTLEGDGMNIEGEELMPSLQEALSSDILNDMESVLAATKLDKESFLTWL | – | increases | decreases |
